# AlphaSeq binding of Ab-14 heavy chain variants to a spike HR2 peptide

The measurements come from Engelhart et al. 2022 (doi:10.1038/s41597-022-01779-4) through the FLAb antibody collection.

Target peptide (SARS-CoV-2 spike, HR2 region): PDVDLGDISGINAS

Parent: Ab-14, a human scFv built as VH, a 15-residue (Gly4Ser)3 linker, VL. Only the CDRs of the heavy chain vary.
VH: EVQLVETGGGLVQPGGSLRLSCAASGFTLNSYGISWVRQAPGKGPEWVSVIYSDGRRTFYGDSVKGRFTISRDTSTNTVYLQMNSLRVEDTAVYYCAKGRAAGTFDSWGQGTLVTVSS
VL: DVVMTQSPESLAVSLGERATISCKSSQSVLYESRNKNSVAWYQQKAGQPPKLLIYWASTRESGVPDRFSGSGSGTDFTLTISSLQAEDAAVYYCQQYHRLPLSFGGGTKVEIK

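Phage display of a naive human antibody library on the peptide gave the parent. The library (AAYL49) carries one to three amino acid substitutions per variant, with no insertions or deletions. In AlphaSeq, yeast of one mating type display the scFv and yeast of the other type display the target. Binding brings cells together so that they mate, and sequencing counts the barcode pairs among the diploids. Each replicate has its own calibration line, from reference interactions of the BCL2 family. Mating was done three times.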

The parent's heavy chain CDRs are GFTLNSYGIS, VIYSDGRRTFYGDSVK, GRAAGTFDS; each variant's own CDRs replace them letter for letter.
The read-out is the apparent dissociation constant on a log10 scale (nM): the lower, the stronger.
"n.d." marks a missing value. The strain was present, yet no cells mated with the target were sequenced in that replicate, which points to weak or no binding.
Parent in this assay: reference entry 0.65, copy in this library 4.11 (one replicate of three).
Background: pairings of library AAYL49 with three empty control strains gave a value in 15% of cases (median 4.06, 5th percentile 2.83). Values in that range, when seen in few replicates, are hard to tell from nonspecific mating.

| log10 Kd (nM) by replicate | CDR-H1 | CDR-H2 | CDR-H3 |
|---|---|---|---|
| n.d. / n.d. / n.d. | GFTPLSYGES | VIYSDGRRTFYGDSVK | GRAAGTFDS |
| 5.51 / n.d. / n.d. | GFTINWYGIS | VIYSDGRRTFYGDSVC | GRAAGTFDS |
| 0.82 / 1.14 / 0.92 | GVTLNSYGIS | VIYSDGRRTFYGDSVK | GRVGGTFDS |
| n.d. / n.d. / n.d. | GFTLNSYGIS | VIYSDTRRTFYGDSVV | GRADGTFDS |
| 5.11 / n.d. / n.d. | GFTLNSYGIS | SIYSDGRKTFYGDSVK | GRADGTFDS |
| 4.48 / n.d. / n.d. | GFTLNSYGIS | VIMSDGRRTFYGLSVK | GRAAGTFDS |
| n.d. / 4.56 / n.d. | GVTLNSYGIN | VIYSDGRRTMYGDSVK | GRAAGTFDS |
| n.d. / n.d. / 3.87 | GFTHNSYGLS | CIYSDGRRTFYGDSVK | GRAAGTFDS |
| n.d. / n.d. / 4.70 | GFTLNSYGIY | VIYSDGRRTFYGDSVK | GRAAGTCDM |
| n.d. / n.d. / 5.05 | GFTLNSYGIS | VIYSDGRRTFYGDSVK | GRAAVAFMS |
| n.d. / 2.71 / n.d. | GFTLNSYGIS | SIYSDGRRTFYVDMVK | GRAAGTFDS |
| 2.43 / 2.31 / 2.44 | GFTLNSYGIS | VIYSDGRRHFYGDSVK | GRAAGTFDQ |
| n.d. / 4.25 / n.d. | GFTLNSYGIS | VIYSDGRNTIYGDSVK | VRAAGTFDS |
| n.d. / 2.37 / 5.84 | GDTLNSYGIS | VIYSYGRRTFYGDSVK | GIAAGTFDS |
| n.d. / n.d. / n.d. | GFTLNSYGIS | VIYSDGRGTFYGCSVK | GRAAGPFDS |
| n.d. / n.d. / n.d. | GFTLNNYGIS | VIISDGRRTFYGDSVK | GRGAGTFDS |
| n.d. / n.d. / n.d. | GFTLNSYGIS | VIYSDGRRTFYGASVK | GRWAGTFKS |
| n.d. / n.d. / 2.35 | GFTLNSYGIS | QIYSDGRRTFYGDSVK | GWAAGWFDS |
| 3.82 / n.d. / 6.45 | GTTLNSTGIS | VMYSDGRRTFYGDSVK | GRAAGTFDS |
| n.d. / n.d. / n.d. | GFTLNSWGIS | VIYSDGRRTFYGDSVK | GRAFGTYDS |
| 4.10 / n.d. / n.d. | GFTHNSYGIS | VIYCDGRRTFYGESVK | GRAAGTFDS |
| 1.15 / 1.84 / 1.75 | GFTLNSYGIS | VIYSDGRRAFYGDGVK | GRAAGKFDS |
| n.d. / n.d. / n.d. | GFTLNSYGTS | VIYSDGRRTPYGDSVK | GRAAGDFDS |
| n.d. / 2.00 / n.d. | GFTLNSYGIS | VIYSDGQRTFAGDSVK | GRAAGLFDS |
| 4.56 / 4.44 / n.d. | GFTLNSYMIS | VTYSDGRRTSYGDSVK | GRAAGTFDS |
| n.d. / n.d. / n.d. | GFTLNSYGIS | VIYFVGRRTWYGDSVK | GRAAGTFDS |
| n.d. / 4.75 / n.d. | GGTLNSYGIS | VIYSDCRRTFYGDSVK | GRAAGTFDY |
| n.d. / 2.54 / n.d. | GFTLCSYGIS | FIYSDGRRTTYGDSVK | GRAAGTFDS |
| n.d. / n.d. / n.d. | GFTLNSYGIS | LIYSDVRRTFYGDSVK | GRFAGTFDS |
| n.d. / n.d. / n.d. | LFTLTSYGIS | VIVSDGRRTFYGDSVK | GRAAGTFDS |
| n.d. / n.d. / 4.66 | GFYLNSYGIS | VIYSMGNRTFYGDSVK | GRAAGTFDS |
| 5.98 / n.d. / n.d. | GFTLNSCGGS | FIYSDGRRTFYGDSVK | GRAAGTFDS |
| n.d. / n.d. / n.d. | GFTCNSYGIS | VMYSDGRRTFYGDSVK | QRAAGTFDS |
| 0.46 / 0.68 / 0.59 | GFNLNSFGIS | VIYSDGRRTFYGDSVK | GRAAGTFDS |
| 4.16 / 3.34 / 4.41 | GFTLNEYGIS | VDYSDGRRTFYHDSVK | GRAAGTFDS |
| 3.76 / n.d. / n.d. | GFTLNSYGIS | VIYSDGGRTFYGDSGQ | GRAAGTFDS |
| n.d. / n.d. / n.d. | GFGLSSYGIS | VIYSDGRRTFYGDSVK | GRAAGTFKS |
| n.d. / n.d. / n.d. | GFTLNSYGDS | VIYSDGRRRFYGDSVK | GRAAGRFDS |
| n.d. / n.d. / n.d. | CFTLNRYGIS | VIYSDGRRTFYGDSVK | GRAAGTRDS |

The 3 strongest on average among those seen in every replicate, once more:

| CDR-H1 | CDR-H2 | CDR-H3 | log10 Kd (nM) by replicate |
|---|---|---|---|
| GFNLNSFGIS | VIYSDGRRTFYGDSVK | GRAAGTFDS | 0.46 / 0.68 / 0.59 |
| GVTLNSYGIS | VIYSDGRRTFYGDSVK | GRVGGTFDS | 0.82 / 1.14 / 0.92 |
| GFTLNSYGIS | VIYSDGRRAFYGDGVK | GRAAGKFDS | 1.15 / 1.84 / 1.75 |